{"source": "paper PMC7615677", "about": "“DNDI-6174, a preclinical candidate for visceral leishmaniasis that targets the cytochrome bc1 complex” (Science translational medicine, 2023)", "key": {"L. infantum": {"system": "L. infantum", "assay": "Chronic hamster infection model (VL)", "format": "in vivo, golden hamsters", "source_text": "Female golden hamsters (5 per treatment group) were infected through intracardiac administration of 2x10^7 L. infantum amastigotes obtained from the spleen of a heavily infected donor hamster. DNDI-6174, miltefosine as reference control or vehicle were orally administrated from day 21 post-infection. After 5-day treatment period, followed by a 10-day wash out period, animals were sacrificed, and parasites burden assessed in the three target organs (liver, spleen, and bone-marrow). For this assessment, organs of individual animals were weighed, except for bone-marrow thus only providing a semi-quantitative evaluation only. Impression smears were Giemsa-stained for microscopic evaluation of amastigote burden, expressed as LDU (= mean number of amastigotes/cell × organ weight in mg) and the results were expressed as a percentage reduction compared to the burdens in the control group (vehicle as placebo). For evaluating the presence of viable residual burden after treatment, a promastigote back-transformation assay was conducted. This consisted of the incubation at ambient temperature of aseptically collected pieces of spleen or liver tissue in 1 mL of promastigote back-transformation medium in 24-well plates. For the bone-marrow, resected femurs were flushed with 1 mL medium. The medium consists of HOMEM pH 6.0 prepared as described elsewhere ([5]) with 10% fetal bovine serum (Gibco), 2.5% penicillin/streptomycin and 1% gentamicin (Merck). A qualitative assessment of the presence of promastigotes was made after 3 and 5 days of incubation and a score was attributed (+, ++ or +++) based on parasite density in the positive wells."}, "[1]": {"assay": "Compartmental PK modelling and repeat-dose simulation", "set-up": "species or system hamsters", "protocol": "To support pharmacokinetic/pharmacodynamic (PKPD) analysis, data in mice and hamsters were also analyzed by compartmental modeling using Phoenix WinNonlin (version 8.2; Certara, Princeton, NJ). For each dose level, an extravascular dosing, single compartment disposition model was fit to the combined Day 1/Day 5 repeat dose plasma data. The model was parameterized with a single volume term (V/F), and with first order absorption (K01) and elimination (K10) rate constants. Initial values for the parameter estimates were obtained by fitting of the model to the Day 1 data at the lowest dose level only, and the same initial values were used across the dose range. Experimental data used in model fitting were the mean concentration-time profiles and the average dose administered to each group. The weighting scheme (1/Y2 for mouse and 1/Y for hamster) was selected based on goodness of fit of the peak region of the experimental profiles. Parameter estimates obtained through fitting were used to simulate full repeat-dose plasma concentration-time profiles with both once-daily and twice-daily (dosing at […]) administration at each dose level and treatment duration used in the efficacy studies."}, "Caco-2 permeability": {"assay": "Caco-2 permeability", "format": "in vitro ADME", "conditions": "human, Caco-2, Caco-2", "protocol": "The ionization constant (pKa), octanol-pH 7.4 buffer partition coefficient (Log D7.4), solubility in biorelevant buffers (FaSSIF-V2, FeSSIF-V2, FaSSGF and pH 7.4 phosphate buffered saline (PBS)) and Caco-2 permeability were determined according to previously published methods ([10])."}, "[2]": {"assay": "Blood to plasma partitioning", "format": "in vitro ADME", "conditions": "for blood plasma ratio at 1000 ng/mL: whole blood, pH 7.4", "protocol": "Whole blood to plasma partitioning (B:P) was determined in human, rat and mouse whole blood and blood stability was assessed in human and rat whole blood. Fresh dog blood was not available,e so the average of the other three species was used as an estimate. For rat and human, aliquots of whole blood were spiked with DNDI-6174 to a concentration of 1000 ng/mL and maintained at 37°C under a 5% CO2 atmosphere to maintain the pH at 7.4 ± 0.1. At 30 and 120 min, eight aliquots of the whole blood were transferred to fresh microcentrifuge tubes and four were used for stability assessment and to determine the whole blood concentration, with the remaining four being centrifuged for separation of plasma to determine the blood to plasma ratio. For mouse, blood was collected from mice at 15 min and 1 h after an IV dose of 3 mg/kg into tubes containing heparin, samples were gently mixed before removing aliquots of whole blood and centrifugation of the remaining blood for the collection of plasma. For analysis, blood and plasma samples were matrix matched by mixing the sample with an equal volume of the opposite blank matrix (i.e. blood samples were mixed with blank plasma and plasma samples were mixed with blank blood) and then quantitated by LCMS against a calibration curve prepared in a 1:1 mixture of blank blood and plasma."}, "[3]": {"conditions": "hamster, plasma, po, Hamsters, 6.25 mg/kg, fitted"}, "[4]": {"conditions": "hamsters, 3.125 mg/kg bid, 5 days, simulated"}, "[5]": {"conditions": "hamsters, 6.25 mg/kg bid, 5 days, simulated"}, "[6]": {"conditions": "hamsters, 6.25 mg/kg qd, 5 days, simulated"}}, "note": "Where two headings read alike, the source gives them in different places.", "data": [{"smiles": "Cc1[nH]c2nc(N)nc(C)c2c1-c1ccc(C#N)c2c1OCO2", "note": "[DNDI-6174]", "values": [{"measurement": "reduction in parasite burden", "setting": "L. infantum; 6.25 mg/kg bid", "value": "more than 95%"}, {"measurement": "efficacy, in words", "setting": "L. infantum; 6.25 mg/kg once daily", "value": "not sufficient for efficacy"}, {"measurement": "minimum efficacious daily dose", "setting": "L. infantum; given bid for 5 days", "value": 6.25, "unit": "mg/kg"}, {"measurement": "K01", "setting": "[1]; Hamsters, 6.25 mg/kg, fitted", "value": 0.304, "unit": "h⁻¹"}, {"measurement": "K10", "setting": "[1]; Hamsters, 6.25 mg/kg, fitted", "value": 0.481, "unit": "h⁻¹"}, {"measurement": "V/F", "setting": "[1]; Hamsters, 6.25 mg/kg, fitted", "value": 3.20, "unit": "L/kg"}, {"measurement": "AUC", "setting": "[1]; hamster, plasma, po, 3.125 mg/kg, hamsters, 3.125 mg/kg bid, 5 days, simulated, read-out: AUC24 ss", "value": 4060, "unit": "ng·h/mL"}, {"measurement": "AUC", "setting": "[1]; hamster, plasma, po, 3.125 mg/kg, hamsters, 3.125 mg/kg bid, 5 days, simulated, read-out: Cum AUC", "value": 20300, "unit": "ng·h/mL"}, {"measurement": "Cmax", "setting": "[1]; hamster, plasma, po, 6.25 mg/kg, Hamsters, fitted", "value": 563, "unit": "ng/mL"}, {"measurement": "Cmax", "setting": "[1]; hamster, plasma, po, 6.25 mg/kg, hamsters, 6.25 mg/kg bid, 5 days, simulated", "value": 682, "unit": "ng/mL"}, {"measurement": "AUC", "setting": "[1]; hamster, plasma, po, 6.25 mg/kg, hamsters, 6.25 mg/kg bid, 5 days, simulated, read-out: AUC24 ss", "value": 8130, "unit": "ng·h/mL"}, {"measurement": "AUC", "setting": "[1]; hamster, plasma, po, 6.25 mg/kg, hamsters, 6.25 mg/kg bid, 5 days, simulated, read-out: Cum AUC", "value": 40600, "unit": "ng·h/mL"}, {"measurement": "Cmax", "setting": "[1]; hamster, plasma, po, 6.25 mg/kg, hamsters, 6.25 mg/kg qd, 5 days, simulated", "value": 563, "unit": "ng/mL"}, {"measurement": "AUC", "setting": "[1]; hamster, plasma, po, 6.25 mg/kg, hamsters, 6.25 mg/kg qd, 5 days, simulated, read-out: AUC24 ss", "value": 4060, "unit": "ng·h/mL"}, {"measurement": "AUC", "setting": "[1]; hamster, plasma, po, 6.25 mg/kg, hamsters, 6.25 mg/kg qd, 5 days, simulated, read-out: Cum AUC", "value": 20300, "unit": "ng·h/mL"}, {"measurement": "AUC(0-inf)", "setting": "[1]; [3]", "value": 4070, "unit": "ng·h/mL"}, {"measurement": "CL/F", "setting": "[1]; [3]", "value": 25.6, "unit": "mL/min/kg"}, {"measurement": "AUC24 ss (unbound)", "setting": "[1]; [4]", "value": 0.366, "unit": "µg·h/mL"}, {"measurement": "Cav ss", "setting": "[1]; [4]", "value": 0.169, "unit": "µg/mL"}, {"measurement": "Cav ss (unbound)", "setting": "[1]; [4]", "value": 0.015, "unit": "µg/mL"}, {"measurement": "Cum AUC (unbound)", "setting": "[1]; [4]", "value": 1.83, "unit": "µg·h/mL"}, {"measurement": "AUC24 ss (unbound)", "setting": "[1]; [5]", "value": 0.731, "unit": "µg·h/mL"}, {"measurement": "Cav ss", "setting": "[1]; [5]", "value": 0.339, "unit": "µg/mL"}, {"measurement": "Cav ss (unbound)", "setting": "[1]; [5]", "value": 0.030, "unit": "µg/mL"}, {"measurement": "Cmax (unbound)", "setting": "[1]; [5]", "value": 0.061, "unit": "µg/mL"}, {"measurement": "Cmin", "setting": "[1]; [5]", "value": 0.027, "unit": "µg/mL"}, {"measurement": "Cmin (unbound)", "setting": "[1]; [5]", "value": 2, "unit": "ng/mL"}, {"measurement": "Cum AUC (unbound)", "setting": "[1]; [5]", "value": 3.66, "unit": "µg·h/mL"}, {"measurement": "AUC24 ss (unbound)", "setting": "[1]; [6]", "value": 0.366, "unit": "µg·h/mL"}, {"measurement": "Cav ss", "setting": "[1]; [6]", "value": 0.169, "unit": "µg/mL"}, {"measurement": "Cav ss (unbound)", "setting": "[1]; [6]", "value": 0.015, "unit": "µg/mL"}, {"measurement": "Cmax (unbound)", "setting": "[1]; [6]", "value": 0.051, "unit": "µg/mL"}, {"measurement": "Cmin", "setting": "[1]; [6]", "value": 0.0022, "unit": "µg/mL"}, {"measurement": "Cmin (unbound)", "setting": "[1]; [6]", "value": 0.2, "unit": "ng/mL"}, {"measurement": "Cum AUC (unbound)", "setting": "[1]; [6]", "value": 1.83, "unit": "µg·h/mL"}, {"measurement": "efflux ratio", "setting": "Caco-2 permeability", "value": 1}, {"measurement": "blood plasma ratio at 1000 ng/mL", "setting": "[2]; human", "value": 0.8}, {"measurement": "blood plasma ratio", "setting": "[2]; mouse, whole blood and plasma, intravenous, 3 mg/kg", "value": 0.88}, {"measurement": "blood plasma ratio at 1000 ng/mL", "setting": "[2]; rat", "value": 0.93}]}]}
